The text below walks through data of article PMC10060577, “Synthesis and physicochemical characterization of acyl myricetins as potential anti-neuroexocytotic agents” (Scientific Reports, 2023).

One data set has as its system PC-12 cells. Kind of data set: Neutral red uptake (NRU) cytotoxicity assay. As to conditions: 12 h incubation. The data set is classed as cell-based. The procedure: PC-12 cells, obtained from Korean Cell Line Bank (KCLB, Seoul, Korea), were cultured in media containing 84% (v/v) RPMI 1640 medium, 10% (v/v) heat-inactivated horse serum, 5% (v/v) heat-inactivated FBS, and 1% (v/v) antibiotic-antimycotic (100×) solution, under humidified conditions (37 °C, 5% CO2). The culture medium was refreshed every other day. Prior to further experiments, the viability of the cells in passages 1-5 was assessed using the trypan blue exclusion test. Harvested PC-12 cells (~ 80% confluency per well) were seeded into 96-well plates coated with type I-collagen and grown in the culture media for one day (37 °C, 5% CO2). Cells were treated with media containing the acyl […] incubated for 12 h. The media were aspirated, and cells were then incubated for 2 h with 0.33% (w/v) neutral red dissolved in the media. After the incubation, the neutral red media were carefully withdrawn, and cells were rinsed twice with PBS at 37 °C and dried for 1 h. Next, neutral red contained in the dried cells was extracted and solubilized with a solution of 50% (v/v) ethanol, 49% (v/v) DDW, and 1% (v/v) acetic acid, by incubating for 10 min. Absorbance of the neutral red-containing solution at 540 nm was recoded using the Synergy H1. Cell viability was determined based on the absorbance of treated cells compared to that of untreated cells (without acyl […]).

Data set [1] can be described thus: Determination of 1-octanol/water partition coefficients (logP). The data set is classed as physicochemical. As to conditions: for logP: 1-octanol/DDW, 25 °C. As to the method: Values for logP were determined to quantify the lipophilicity or hydrophilicity of the separated acyl myricetins, using the previously reported method with slight modifications. After the addition of 1-octanol (500 μL) into 2 mL micro-tubes containing 1 mg of the separated acyl myricetins, the micro-tubes were vortexed for 1 min, followed by sonication (bath-type) for 5 min, and then 500 μL of DDW was added to the tubes. Next, the mixed solutions in the tubes were vortexed again for 5 min and phase-separated by centrifugation (3000 relative centrifugal force for 10 min at 25 °C). The 40 μL of upper layer (1-octanol) and 100 μL of lower layer (DDW) were collected and diluted with 1.96 mL of 1-octanol and 100 μL of DMSO, respectively. The solutes dissolved in the upper and lower layers were quantified based on the standard curves obtained from the UV/Vis-light absorbance spectra (250‒600 nm) using a microplate reader (Synergy H1; BioTek Instruments Inc., VT, USA; measuring interval of 3 nm, at 25 °C). Finally, the logP values were calculated as log(coctanol/cDDW), where coctanol and cDDW are the concentrations of the solutes in the upper and lower layers, respectively.

Regarding monopropionyl-myricetin [MP1], the CC50 in the data set with PC-12 cells was 54.6 ± 0.6 µM. In addition, in data set [1], the logP worked out at 2.21 ± 0.16. Besides, in data set [1] (based on logP), the “times more lipophilic than free myricetin” value is reported as 7.4 fold.

dipropionyl-myricetin [MP2]: in the data set on PC-12 cells, the CC50 was found to be 58.4 ± 1.6 µM. Moreover, the logP in data set [1] came to 2.42 ± 0.23. The “times more lipophilic than free myricetin” value in data set [1] (based on logP) is listed as 12.0 fold.

As to monooctanoyl-myricetin [MO1], the CC50 in the data set with PC-12 cells turned out to be 59 ± 1.4 µM. For the same substance, in data set [1], the logP came out at 2.76 ± 0.29. Also, in data set [1] (based on logP), the “fold more lipophilic than MP1” value worked out at 3.5 fold, the “fold more lipophilic than MP2” value was 2.2 fold and the “times more lipophilic than free myricetin” value was determined as 26.3 fold.
